From patent publication US6500803B1, “Factor VIIa inhibitors” (Aventis Pharma Deutschland GmbH, priority 1999, dated 2002)

By UniProt entry, the sequences of proteins in these tests, tags left out. Residues count along the entry.
UniProt P08709, 61-212 limits assumed: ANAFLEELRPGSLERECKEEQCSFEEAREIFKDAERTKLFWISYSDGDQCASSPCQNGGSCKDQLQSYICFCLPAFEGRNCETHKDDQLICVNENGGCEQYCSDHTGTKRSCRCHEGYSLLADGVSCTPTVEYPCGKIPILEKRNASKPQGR
UniProt P08709, 213-466 limits assumed: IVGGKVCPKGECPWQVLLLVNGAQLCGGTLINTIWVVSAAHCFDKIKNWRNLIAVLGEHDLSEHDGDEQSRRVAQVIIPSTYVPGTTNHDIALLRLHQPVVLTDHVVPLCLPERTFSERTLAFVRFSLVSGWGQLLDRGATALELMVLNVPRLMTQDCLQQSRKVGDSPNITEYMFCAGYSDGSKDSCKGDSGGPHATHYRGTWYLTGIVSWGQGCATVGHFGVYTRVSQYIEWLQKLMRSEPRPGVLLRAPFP
UniProt P13726, 33-295 partner limits assumed: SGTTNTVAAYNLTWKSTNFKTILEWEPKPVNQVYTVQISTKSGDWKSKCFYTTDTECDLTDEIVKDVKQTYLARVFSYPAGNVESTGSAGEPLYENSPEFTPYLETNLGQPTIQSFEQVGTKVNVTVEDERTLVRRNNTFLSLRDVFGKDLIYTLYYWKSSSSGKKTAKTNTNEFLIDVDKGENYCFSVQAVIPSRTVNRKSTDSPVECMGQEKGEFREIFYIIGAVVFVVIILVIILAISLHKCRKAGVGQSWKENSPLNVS

Target: factor VIIa/tissue factor (Homo sapiens, UniProt P08709)
Assay: Factor VIIa (FVIIa) chromogenic assay
Details: read-out: Ki (FVIIa); human factor VIIa 5 nM and TF 10 nM, chromogenic substrate S-2288 500 μM, 15 min preincubation, 25° C., pH 8.15
Text: The ability of compounds of formula I to inhibit factor VIIa or other enzymes like factor Xa, thrombin, plasmin, or trypsin can be assessed by determining the concentration of the compound of formula I that inhibits enzyme activity by 50%, i.e., the IC50 value, which is related to the inhibition constant Ki. Purified enzymes are used in chromogenic assays. […]
The inhibitory activity (expressed as inhibition constant Ki (FVIIa)) of compounds of formula I towards factor VIIa/tissue factor activity was determined using a chromogenic assay essentially as described previously (J. A. Ostrem et al., Biochemistry 37 (1998) 1053-1059, which is incorporated herein by reference). Kinetic assays were conducted at 25° C. in half-area microtiter plates (Costar Corp., Cambridge, Mass.) using a kinetic plate reader (Molecular Devices Spectramax 250). […]

Ki: 670 nM
Structure (SMILES): C=CCOC(=O)N[C@@H](Cc1ccc(C(=N)N)cc1)C(=O)N[C@@H](CCC(=O)O)C(=O)NC1CCN(S(=O)(=O)c2cc(Cl)ccc2Cl)CC1
